# Reference: patent US5077195A, “Polypeptides complementary to peptides or proteins having an amino acid sequence or nucleotide coding sequence at least partially known and methods of design therefor” (Board of Reagents, The University of Texas System, priority 1986, dated 1991)
# Biological target: T1, LHRH receptors (Rattus norvegicus, UniProt P30969)
# T1 construct: endogenous in cells; host or cells: dispersed pituitary cells, fixed after the plaque assay
# T1 sequence (P30969 1-327): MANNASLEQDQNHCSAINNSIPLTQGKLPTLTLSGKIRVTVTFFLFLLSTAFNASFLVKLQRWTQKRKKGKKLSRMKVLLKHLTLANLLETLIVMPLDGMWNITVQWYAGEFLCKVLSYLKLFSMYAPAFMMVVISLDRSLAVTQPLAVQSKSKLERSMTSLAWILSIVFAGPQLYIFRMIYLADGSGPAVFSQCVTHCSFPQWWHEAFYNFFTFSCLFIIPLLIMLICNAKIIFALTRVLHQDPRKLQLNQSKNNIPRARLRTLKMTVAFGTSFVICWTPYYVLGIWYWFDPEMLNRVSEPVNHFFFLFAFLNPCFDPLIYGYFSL
# Test: Immunocytochemical assay for LHRH cell surface receptors
# Assay type: cell-based
# Details: control experiments
# Protocol: After standard plaque assays were performed (as in Example 4B), the chambers were infused with sodium acetate to elute the bound antibodies and fixed sequentially in B5 fixative, ethanol, Lugol's iodide and sodium thiosulfate (as described in Smith et al., Methods in Enzymology, 124, p. 443). The slides were treated with hydrogen peroxide and normal goat serum before application of suitable dilutions of the antibodies. Immunocytochemistry was performed with the ABC method (Vector Labs, Burlingame, Calif.) with diaminobenzidine as substrate.
# Cells containing LH were selectively stained with antibodies to LH. In general, plaques formed in the assays of earlier examples contained one LH-containing cell near the center of each circular plaque. Cells presenting LHRH receptors were stained using IgG fractions of immune serum from rabbits immunized with a peptide complementary to LHRH (see Example 4C). Again, one cell per circular plaque was stained and these were the same cells that contained LH.
substance,measurement,value
GLN--HIS--TRP--SER--TYR--GLY--LEU--ARG--PRO--GLY [LHRH],blocking of receptor staining by the antibody (in words),could be blocked
